Source: patent US4238620A, “Dibenz[b,f]oxepin and dibenzo[b,f]thiepin derivatives, process for preparation thereof, method of using the same, and compositions thereof” (priority 1978, dated 1980)

What was measured:
[1] = in vivo
Description: In the following description, the therapeutic index means LD50 /ED50 (or MED), and the safety index means UD50 /ED50 (or MED).

[2] = Safety index (UD50/ED50 or MED), separation of activity from ulcerogenicity; conditions: in vivo
Description: From these diagrams, the correlation between the pharmacological activity of each compound and its ulcerogenicity and toxicity, i.e. the safety margin of each compound, can be clearly seen. In these Figures, the lines and letters have the following meanings:
The following conclusions can be drawn from Tables I to III and FIGS. 1 and 2. In the following description, the therapeutic index means LD50 /ED50 (or MED), and the safety index means UD50 /ED50 (or MED). The safety margin of a given compound is broader when it has larger therapeutic and or safety indices.

rats = assay: Overall comparison of lethal toxicity (Test 5); type: in vivo; conditions: vs compound 1
Experimental: (a) Single administration in rats
The mortality was observed on the 7th day after single administration of test compounds, and LD50 -value was calculated according to the method of Litchfield and Wilcoxon.
(§1) (b) Repeated administrations in rats
(§2) Test compounds were orally administered once daily for 5 days, and LD50 -value was calculated from the mortality on the 6th day.

[3] = system: Gastrointestinal ulcer formation in fed rats; assay: Gastrointestinal ulcer formation in fed rats (ulcerogenicity); conditions: rat, in vivo
Experimental: TEST 4. ULCEROGENICITY IN GASTROINTESTINAL TRACT
Gastrointestinal ulcer formation in fed rats
The test was carried out according to the method described in Science, 170, 183 (1970).

in vivo [4] = conditions: rat, po
in vivo [5] = conditions: rat, po; remark: listed apart in the source
Experimental: as §1, §2

Compound | breadth of safety margin compared with compound 1 [1] | therapeutic index compared with indomethacin [1] | therapeutic index relative to compound 1 (in words) [1] | safety index relative to compound 1 (in words) [2] | toxicity relative to compound 1 (rats) | ulcerogenicity relative to compound 1 [3] | ulcerogenicity relative to indomethacin [3] | LD50 at 168 h (in vivo [4]) | LD50 at 144 h (in vivo [5])
CC(C(=O)OCCOCCO)c1ccc2c(c1)C(=O)Cc1ccccc1O2 (racemic) [compound D, 2-(2-Hydroxyethoxy)ethyl dl-2-(10,11-dihydro-11-oxodibenz[b,f]oxepin-2-yl)propionate] | far superior to compound 1 | far larger therapeutic indices than indomethacin | about two times | about two times | less than one-half | less than one-half |  |  | 
Cc1ccc2c(c1)CC(=O)c1cc(CC(=O)O)ccc1O2 [compound B, 8-Methyl-10,11-dihydro-11-oxodibenz[b,f]oxepin-2-acetic acid] |  | far larger therapeutic indices than indomethacin |  |  |  |  | about 1/6 | 326 mg/kg | > 60 mg/kg
